The record followed here is PubChem BioAssay (EPA / NIEHS).

Structures are written as SMILES. Values joined by “and” are separate entries in the source; they are usually repeats but may differ in a detail not shown here. Identical values can stand only once. Only a part is listed here, and it is no random draw. The source holds several records for some structures; these can differ, active in one and inactive in another. Active and inactive are the calls of the source. The calls were made as follows: active = hit-call score of the fitted dose curve at least 0.9, where 1 is the maximum; inactive = score below 0.9.

A short description of the assay: ATG_RORE_CIS: Attagene CIS-FACTORIAL HepG2 Assay for human RAR-related Orphan Receptor Element (RORE) (AID 2282959). The settings on record: HepG2 Attagene cis-factorial RORE reporter, mRNA; actives raise or lower the signal.
Take `CCOP(=S)(OCC)SCS(=O)(=O)CC`: the call was inactive.

As to `COC(=O)c1ccccc1S(=O)(=O)NC(=O)N(C)c1nc(C)nc(OC)n1`, the molecule was classed as inactive. As to `O=C(O)COc1ccccc1`, the result was inactive. On the same count and under the same terms, the same measure for `Cc1ccc2nc3sc(=O)sc3nc2c1`: “inactive”; for `CN(C)c1ccccc1`: “inactive”; for `COP(=S)(OC)Oc1cc(Cl)c(Cl)cc1Cl`: “inactive”. As for `CC(C)Nc1nc(Cl)nc(NC(C)C)n1`, the outcome was inactive.

On to `C=CCO`, for which the result was inactive. Take `CCOP(=S)(Oc1ccc([N+](=O)[O-])cc1)c1ccccc1` (stereo not drawn): the outcome was inactive. The same measure, in the same setting: as for `CCOC(=O)/C=C(C)/C=C/C[C@@H](C)CCCC(C)C`, the entry is “inactive”; as for `Cc1ccc(N(SC(F)(Cl)Cl)S(=O)(=O)N(C)C)cc1`, “inactive”; as for `ClC1(Cl)C2(Cl)C3(Cl)C4(Cl)C(Cl)(Cl)C5(Cl)C3(Cl)C1(Cl)C5(Cl)C24Cl` (stereo not drawn), “inactive”. For `O=C(O)CCCc1ccc(N(CCCl)CCCl)cc1`, the result was inactive. As to `OCCN(CCO)CCO`, the result was inactive. With `c1ccc2c(c1)oc1ccccc12`, the molecule was called inactive. Turning to `OC(c1ccc(Cl)cc1)(c1ccc(Cl)cc1)C(Cl)(Cl)Cl`, the molecule was called inactive. The same measure, in the same setting: the same measure for `CC(C)CCCCCCOC(=O)c1ccccc1C(=O)OCCCCCCC(C)C`: “inactive”; for `COC(=O)c1sccc1S(=O)(=O)NC(=O)Nc1nc(C)nc(OC)n1`: “inactive”. A word on the AC50: it is the midpoint of the concentration-response curve, whichever way the signal moves. Take `c1csc(-c2ccc(-c3cccs3)s2)c1`: the AC50 is active: 2.57 µM. For the molecule `CCCCNP(N)(N)=S`, the molecule was called inactive. Same read-out and setting: as for `O=C(O)COc1ccc(Cl)cc1`, the entry is “inactive”.

Take `COP(=S)(OC)Oc1c(Cl)cc(C)cc1Cl`: the molecule was classed as inactive. Take `CCCCOP(=O)(CCCC)OCCCC`: the result was inactive. On the same count and under the same terms, as for `COC(=O)c1ccccc1S(=O)(=O)NC(=O)Nc1nc(C)nc(OC)n1`, the entry is “inactive”. As to `Oc1ccc(Cl)cc1Cc1ccccc1`, the molecule was classed as inactive; the AC50 is active: 4.06 µM and active: 14.8 µM. Regarding `O=C(Oc1ccc(Br)cc1)N1CCN2CCC1CC2`, the molecule was classed as inactive. The same measure, in the same setting: the same measure for `CCCOCC(=Nc1ccc(Cl)cc1C(F)(F)F)n1ccnc1`: “inactive”; for `NC(=O)O`: “inactive”.

In the case of `CNC(=O)/C=C(\C)OP(=O)(OC)OC`, the molecule was called inactive. Still for that read-out and setting: as for `COP(=S)(OC)SCN1C(=O)c2ccccc2C1=O`, the entry is “inactive”; as for `CCCCCCCCCl`, “inactive”. With `Cc1cccc(OP(=O)(Oc2cccc(C)c2)Oc2cccc(C)c2)c1`, the call was inactive.
